Source: patent publication EP2330125A2

Protein sequences, listed by entry. Tags and fused reporters are not part of them. Residues count along the entry.
UniProt P32301, 22-463 limits assumed: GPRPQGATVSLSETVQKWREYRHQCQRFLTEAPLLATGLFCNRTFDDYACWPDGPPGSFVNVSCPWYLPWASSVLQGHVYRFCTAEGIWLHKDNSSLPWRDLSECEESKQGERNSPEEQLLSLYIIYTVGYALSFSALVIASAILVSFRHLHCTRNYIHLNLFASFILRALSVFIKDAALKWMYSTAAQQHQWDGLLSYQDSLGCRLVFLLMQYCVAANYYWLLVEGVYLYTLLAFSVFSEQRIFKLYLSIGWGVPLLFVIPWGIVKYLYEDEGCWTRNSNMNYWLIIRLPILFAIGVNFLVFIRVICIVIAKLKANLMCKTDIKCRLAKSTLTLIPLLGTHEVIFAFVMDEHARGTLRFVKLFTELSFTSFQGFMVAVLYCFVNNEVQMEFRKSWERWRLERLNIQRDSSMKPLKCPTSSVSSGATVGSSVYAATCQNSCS
UniProt P49146, whole entry: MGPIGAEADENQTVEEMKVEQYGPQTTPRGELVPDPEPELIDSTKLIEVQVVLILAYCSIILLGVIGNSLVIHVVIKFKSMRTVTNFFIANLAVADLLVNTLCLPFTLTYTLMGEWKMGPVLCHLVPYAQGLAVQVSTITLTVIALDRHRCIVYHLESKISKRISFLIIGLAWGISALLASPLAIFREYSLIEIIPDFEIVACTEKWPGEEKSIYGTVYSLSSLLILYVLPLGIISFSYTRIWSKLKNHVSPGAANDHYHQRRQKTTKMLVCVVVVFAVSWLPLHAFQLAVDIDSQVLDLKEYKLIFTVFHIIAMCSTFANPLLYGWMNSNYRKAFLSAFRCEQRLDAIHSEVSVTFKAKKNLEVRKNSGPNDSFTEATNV

Tests used:
GLP-1 receptor [1] = target: GLP-1 receptor (UniProt P32301); assay: cell-based or functional assay
calcitonin receptor [2] = assay: cell-based or functional assay
GLP-1 receptor [3] = target: GLP-1 receptor (UniProt P32301); assay: [125I]GLP-1 displacement, RINm5F membranes
neuropeptide Y2 receptor = neuropeptide Y2 receptor (UniProt P49146); assay: [125I]-human PYY displacement, SK-N-BE membranes
amylin receptor (rat) = assay: 125I-amylin displacement, rat nucleus accumbens membranes
calcitonin receptor [4] = assay: calcitonin receptor binding assay

“Exendin-4-(1-28)-bAla-bAla-Rat Amylin, amide (peptide)” was tested. Which GLP1 cyclase (GLP-1 receptor [1]) did it give?
Its GLP1 cyclase is 5.8.

And the CT cyclase (calcitonin receptor [2])?
Its CT cyclase is 108.

What does the source list for “exendin-4(1-28)-βAla-βAla-PYY(31-36) (peptide)”?
IC50 (GLP-1 receptor [3]): 0.19 nM; IC50 (neuropeptide Y2 receptor): 1000 nM

Which Receptor Binding (GLP-1 receptor [3]) does the source give for “Exendin-4(1-28)-betaAla-betaAla-Amylin(1-7)-11,18Arg-sCT(8-27)-Amylin(33-37) (peptide)” here?
Its Receptor Binding is 0.3.

And the Receptor Binding Assay (GLP-1 receptor [3])?
Its Receptor Binding Assay is 0.3.

What about the CT cyclase (calcitonin receptor [2]) of the same substance?
The CT cyclase was 7.8.

What about the Receptor Binding (amylin receptor (rat)) of the same substance?
The Receptor Binding was 0.2.

And the Receptor Binding Assay (amylin receptor (rat))?
Its Receptor Binding Assay is 0.2.

What about the Receptor Binding (calcitonin receptor [4]) of the same substance?
Its Receptor Binding is 0.1.

And the Receptor Binding Assay (calcitonin receptor [4])?
The Receptor Binding Assay was 0.1.

Which IC50 (GLP-1 receptor [3]) does the source give for “exendin-4(1-28)-βAla-βAla-PYY(25-36) (peptide)” here?
The IC50 was 0.16 nM.

What about the IC50 (neuropeptide Y2 receptor) of the same substance?
Its IC50 is 7.8 nM.
